Apparent affinities of Ab-14 variants for a coronavirus HR2 peptide

Values reported by Li et al. 2023, doi:10.1038/s41467-023-39022-2 (FLAb copy).

Target peptide (SARS-CoV-2 spike, HR2 region): PDVDLGDISGINAS

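The starting antibody came from a phage panning campaign against this peptide. These sequences belong to a second round, designed from the earlier measurements on random variants of the parent. Several design methods are mixed in this list. AlphaSeq pools MATa yeast showing the antibodies with MATalpha yeast showing the peptide. After mating in shaken culture at 30 °C for 16 h, diploids were selected and their barcode pairs sequenced. Each replicate has its own calibration line, from reference interactions of the BCL2 family. There are six technical replicates.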

Parent: Ab-14, a human scFv built as VH, a (GGGGS)3 linker, VL. Only the CDRs of the heavy chain vary.
VH: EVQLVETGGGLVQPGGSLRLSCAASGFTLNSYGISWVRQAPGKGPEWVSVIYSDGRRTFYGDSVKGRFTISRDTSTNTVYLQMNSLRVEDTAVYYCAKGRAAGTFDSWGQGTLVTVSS
VL: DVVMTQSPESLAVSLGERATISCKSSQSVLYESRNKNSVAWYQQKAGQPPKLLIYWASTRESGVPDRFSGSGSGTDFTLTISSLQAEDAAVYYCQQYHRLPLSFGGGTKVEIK

Variants are written as CDR1, CDR2 and CDR3 of the heavy chain (limits as in the source). Parent: GFTLNSYGIS, VIYSDGRRTFYGDSVK, GRAAGTFDS. This list holds designs with at most six substitutions. The Kd shown is the geometric mean over detected replicates; a lower Kd is a better binder. "nd" marks a missing value. The strain was present, yet no cells mated with the target were sequenced in any replicate, which points to weak or no binding. Entries are sorted by rising average, undetected variants last.

The variant GFTLNSYGIS, VIYSDGRRTMYGDSVK, GRNAGTFDS gave 550 pM (6 of 6 replicates; controls 0 of 18).
The variant GFDLNEYGIS, VIYSDGRRTFYVDSVK, GKAAGTFDT gave 690 pM (6 of 6 replicates; controls 0 of 18).
The variant GFSLNEYGIS, VIYSDGRRTFYGDSVK, GRNAGTFDT gave 940 pM (6 of 6 replicates; controls 1 of 18).
The variant GFDLNSYGIS, VIYSDGRRTFYLDSVK, GQTAGTFDS gave 1.4 nM (6 of 6 replicates; controls 0 of 18).
The variant GFDLNSYGIS, VIYSDGRRTFYHDSVK, GKEAGTFDS gave 1.4 nM (6 of 6 replicates; controls 0 of 18).
The variant GFGLNEYGIS, VIYSDGRRTFYGDSVK, GRTAGTFDK gave 1.6 nM (6 of 6 replicates; controls 0 of 18).
The variant GFELNSYGIS, VIYSDGRRTFYGDSVK, GSTAGTFDF gave 2.1 nM (6 of 6 replicates; controls 2 of 18).
The variant GFELNSYGIS, VIYSDGRRTFYADSVK, GRQAGTFDA gave 2.3 nM (6 of 6 replicates; controls 0 of 18).
The variant GFTLESYGIS, VIYSDGRRTFYGDSVK, GHVAGTFDS gave 2.3 nM (6 of 6 replicates; controls 0 of 18).
The variant GFSLNSYGIS, VIYSDGRRTFYADDVK, GTAAGTFDS gave 2.5 nM (6 of 6 replicates; controls 2 of 18).
The variant GFSLNEYGIS, VIYSDGRRTFYHDSVK, GRAAGTFDK gave 2.6 nM (6 of 6 replicates; controls 1 of 18).
The variant GFTLNSYGIS, VIYSDGRRTFYADSVK, GAAAGTFDS gave 3.9 nM (6 of 6 replicates; controls 0 of 18).
The variant GFQLNEYGIS, VIYSDGRRTFYGDQVK, GQAAGTFDL gave 5.2 nM (6 of 6 replicates; controls 1 of 18).
The variant GFSLNNYGIS, VIYSDGRRTFYGDSVK, GQAAGTFDT gave 7.6 nM (4 of 6 replicates; controls 0 of 18).
The variant GFDLNSYGIS, VIYSDGRRTFYHDSVK, GRSAGTFDS gave 11 nM (6 of 6 replicates; controls 0 of 18).
The variant GFSLNSYGIS, VIYSDGRRTFYGDSVK, GHAAGTFDQ gave 11 nM (6 of 6 replicates; controls 2 of 18).
The variant GFTLNDYGIS, VIYSDGRRTFYGDSVK, GAAGGTFDS gave 14 nM (4 of 6 replicates; controls 0 of 18).
The variant GFTLNSYGIS, VIYSDGRRTFYMDAVK, GRVAGTFDS gave 33 nM (1 of 6 replicates; controls 0 of 18).
The variant GFTLNEYGIS, VIYSDGRRTFYGDSVK, GTVAGTADS gave 35 nM (3 of 6 replicates; controls 0 of 18).
The variant GFTLNDYGIS, VIYSDGRRTQYIDSVK, GTAAGTFDS gave 43 nM (6 of 6 replicates; controls 0 of 18).
The variant GFSLNSYGIS, VIYSDGRRTFYQDSVK, GVAAGTFDS gave 58 nM (1 of 6 replicates; controls 0 of 18).
The variant GFELNSYGIS, VIYSDGRRTFYGDSVK, GEAAGTFDM gave 450 nM (2 of 6 replicates; controls 0 of 18).
The variant GFTLMDYGIS, VIYSDGQRTFYGDSVK, GRAAGTYDS gave nd (0 of 6 replicates; controls 0 of 18).
The variant GFTLNDYGAS, VIYSDGTRTFYGDIVK, GQATGTFDS gave nd (0 of 6 replicates; controls 0 of 18).
The variant GFSLNSYGIS, VIYSDGRRTFYIDTVK, GQAAGTFDS gave nd (0 of 6 replicates; controls 0 of 18).
The variant GFWLNSYGIS, VIYSDGRRTFYQDSVK, GAAAGTFDS gave nd (0 of 6 replicates; controls 0 of 18).
The variant GFDLNSYGIC, VIYSDGRRTYYGDSVK, GRAAGWFNS gave nd (0 of 6 replicates; controls 0 of 18).
The variant GFTLNSYGIS, VIYSDGRRTFYGDEVK, GRQAGTFDS gave nd (0 of 6 replicates; controls 0 of 18).
The variant GFTLNEYGIS, VLYSDGRRTLYGDSVK, GTAAVTFDQ gave nd (0 of 6 replicates; controls 0 of 18).
The variant GFKLNSYGIS, VIYSDGRRTFYIDSVK, GRNAGTFDS gave nd (0 of 6 replicates; controls 0 of 18).
The variant GFTLNEYGIS, VIYSDGCRTFYGDSVK, GRAADTFHS gave nd (0 of 18 replicates; controls 1 of 54).
The variant GFDLNSYGIS, VIYSDGRRTFYGDSVK, GRAAGHFRS gave nd (0 of 6 replicates; controls 0 of 18).
The variant GFTLNSYGIS, VIYSDGRRTAYGDSVK, GRAVGTMDM gave nd (0 of 6 replicates; controls 0 of 18).
The variant GFTLNLYGIS, VIYSDGRRTMYGDSVK, GRAEGTFDS gave nd (0 of 6 replicates; controls 0 of 18).
The variant GFTLNSYGIS, VIYSDGRRTFYGDSTK, GYAAGTFDS gave nd (0 of 6 replicates; controls 0 of 18).
The variant GFTLNSYGIS, VIYSDGRRTFYGDSVK, GRAQGTFDM gave nd (0 of 6 replicates; controls 0 of 18).
The variant GFTLNSYGIS, VIYSDGRRTFYGDSVK, GRAAGAFDS gave nd (0 of 6 replicates; controls 1 of 18).
The variant GFTLLSYGIS, VIYSDGKRTWYLDSVK, GQAAGTFIS gave nd (0 of 6 replicates; controls 0 of 18).
The variant GFKLFSYGIS, VIYSDGRRTFIHDSVK, GRAAGTFNS gave nd (0 of 6 replicates; controls 0 of 18).

The last 3 entries again:

CDR-H1	CDR-H2	CDR-H3	Kd	seen in	empty controls
GFTLNSYGIS	VIYSDGRRTFYGDSVK	GRAAGAFDS	nd	0/6	1/18
GFTLLSYGIS	VIYSDGKRTWYLDSVK	GQAAGTFIS	nd	0/6	0/18
GFKLFSYGIS	VIYSDGRRTFIHDSVK	GRAAGTFNS	nd	0/6	0/18

The authors averaged sequences with at least three values out of six and counted those with two or fewer as poor binders. Three control strains display no target. For all heavy chain designs, 1% of the pairings with them gave a signal, with a median of 120 nM and one signal in twenty below 7.0 nM, so weak values seen in few replicates may be background. For each scFv, signals with the empty controls are counted beside the result. A sequence that the file lists under several names has all its replicates pooled. Values of this round are not directly comparable with the first-round values of the same sequences. The parent sequence was in this pool as ten entries: three were never detected, three once, and four in most replicates, with averages from 2.2 nM to 240 nM.